This assay concerns the target RPS6KB1 (human) (UniProt P23443). The experiment in a line: radiometric filter-binding kinase assay. The note with it: ATP 100 µM.

The chains behind the UniProt entries cited, without tags or fusion partners. Where a name states a change or a piece, a line headed by the entry shows the natural chain unless it says otherwise.
UniProt P23443: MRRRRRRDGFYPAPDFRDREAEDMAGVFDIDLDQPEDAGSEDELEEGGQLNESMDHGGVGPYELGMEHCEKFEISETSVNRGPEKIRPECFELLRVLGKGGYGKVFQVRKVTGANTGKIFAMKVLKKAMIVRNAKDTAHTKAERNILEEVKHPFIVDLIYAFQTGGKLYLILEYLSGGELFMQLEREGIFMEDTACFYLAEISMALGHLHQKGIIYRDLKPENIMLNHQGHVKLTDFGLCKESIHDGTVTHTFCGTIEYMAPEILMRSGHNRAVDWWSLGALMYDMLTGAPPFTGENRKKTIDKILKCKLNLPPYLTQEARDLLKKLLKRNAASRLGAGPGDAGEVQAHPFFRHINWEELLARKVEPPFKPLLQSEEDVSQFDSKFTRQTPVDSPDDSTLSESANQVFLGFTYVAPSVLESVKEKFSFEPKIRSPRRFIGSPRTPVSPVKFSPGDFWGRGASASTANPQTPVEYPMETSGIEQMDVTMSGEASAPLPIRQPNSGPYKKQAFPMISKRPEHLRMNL

pIC50: −log10 of the molar value.

`CCc1cncnc1N1CCN(Cc2nc3cc(C(F)(F)F)ccc3[nH]2)CC1`: the pIC50 was 6.80.

The pIC50 is the negative decadic logarithm of the IC50, by convention in mol/L. Lower therefore signals a high IC50.

(Values after the kinase profiling compilation of Christmann-Franck et al. (2016).)
